Results on two compounds are retold here after patent publication US8088574B2, “Poly(A) polymerase” (Wisconsin Alumni Research Foundation, priority 2007, dated 2012).

The test system of this assay is HO-1 mRNA. Kind of assay: quantitative real-time PCR of HO-1 mRNA in HEK 293 cells. As to conditions: HEK 293 cells pretreated with CKI inhibitor (IC261 50 μM, CKI-7 250 μM, 2.5 h); for HO-1 mRNA induction after exposure to 100 μM tBHQ: tBHQ 4 hours. (In general: In qPCR the cycle at which signal appears reflects the starting amount.)

Turning to `NCCNS(=O)(=O)c1ccc(Cl)c2ccncc12` [CKI-7], the “basal levels of HO-1 mRNA” value is on record as “reduced the basal levels of HO-1 mRNA” and the “HO-1 mRNA induction after exposure to 100 μM tBHQ” value was “blocked HO-1 mRNA induction”.

In the case of `COc1cc(OC)c(C=C2C(O)=Nc3ccccc32)c(OC)c1` [IC261], the “basal levels of HO-1 mRNA” value is “reduced the basal levels of HO-1 mRNA” and the “HO-1 mRNA induction after exposure to 100 μM tBHQ” value is “blocked HO-1 mRNA induction”.
